This note sets out measurements from PubChem BioAssay AID652163 (Broad Institute, 2013).

Protein sequences, listed by entry. Tags and fused reporters are not part of them. Lines headed by an entry give the natural chain unless they say otherwise; changes in a name come on top.
UniProt P26447: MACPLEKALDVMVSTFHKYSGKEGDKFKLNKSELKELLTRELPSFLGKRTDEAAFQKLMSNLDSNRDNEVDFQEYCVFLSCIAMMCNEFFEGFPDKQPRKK

The entries are a selection whose mix differs from that of the whole data set. Calls of active or inactive are those of the source.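 Rule for the calls: active = mean inhibition of at least 70% across replicates, with every replicate also reaching that level; inconclusive = mean inhibition reaches 70% but some replicates fall short; inactive = mean inhibition below 70%.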

The target in the experiment is Protein S100-A4 (Homo sapiens) (UniProt P26447). In words: human S100A4 protein-peptide interaction blockers – biochemical, fluorescence polarization, TAMRA-MyoIIA peptide, primary screen (AID 652163). Conditions: at 10.7 µM, hits give high values. On the technique in general: Polarisation of emitted light reports the rotation of a fluorescent probe.
What is called inhibition is the drop in the measured response relative to a control, in per cent. On to `Cc1ccc(NCCc2c([N+](=O)[O-])cc([N+](=O)[O-])cc2[N+](=O)[O-])cc1`, for which the inhibition is inactive: 6.95%.

For the compound `Nc1cccc2c([As](=O)(O)O)cccc12`, the inhibition was inactive: 17.7%.

`CCCOP(=S)(Nc1nc(N)cc(=O)[nH]1)OCCC`: the inhibition is inactive: -2.89%.

In the case of `CCOP(=O)(Nc1cccc2ccccc12)OCC`, the inhibition was inactive: 4.64%.

Consider `O=C(OC1CN2CCC1CC2)c1ccc(Cl)cc1` (stereo not drawn), for which the inhibition was inactive: -2.07%.

`COc1cc(C(=O)NCC2(N3CCOCC3)CCCCC2)cc(Cl)c1OC(C)C`: the inhibition is inactive: 1.83%.

Turning to `O=[As](O)(O)c1cccnc1`, the inhibition was inactive: 0.157%.

For `CS(=O)(=O)c1ccc(Cl)c(NC(=O)COC(=O)C(O)(c2ccccc2)c2ccccc2)c1`, the inhibition was inactive: -3.16%.

As to `O=[As](O)(c1cccc(O)c1)c1cccc(O)c1`, the inhibition was inactive: -2.06%.

On to `NC(=O)Nc1ccc([As](=O)(O)O)cc1`, for which the inhibition is inactive: -6.45%.

Turning to `N#CCCN(C(=O)COC(=O)C(O)(c1ccccc1)c1ccccc1)c1ccc(F)cc1`, the inhibition is inactive: -6.35%.

Turning to `CCOP1(=S)c2c(C)nn(CCC#N)c2N=C(c2ccc(F)cc2)N1C` (stereo not drawn), the inhibition is inactive: 3.83%.

For the compound `CN(C(=O)Cc1ccccc1)[C@@H]1CC[C@]2(CCCO2)C[C@H]1N1CCCC1`, the inhibition is inactive: 2.61%.

In the case of `CN(C)C(=O)c1cc([N+](=O)[O-])cc2c1-c1c(cc([N+](=O)[O-])cc1[N+](=O)[O-])C2=O`, the inhibition is inactive: -11.9%.

In the case of `CN(C(=O)Cc1ccc(Cl)c(Cl)c1)[C@H]1CC[C@@]2(CCCO2)C[C@@H]1N1CCCC1`, the inhibition was inactive: -5.67%.

For `CCOP1(=S)c2c(C)nn(CCC#N)c2N=C(c2ccccc2F)N1C` (stereo not drawn), the inhibition is inactive: 1.02%.

For the compound `O=P(Nc1nccs1)(Oc1ccccc1)Oc1ccccc1`, the inhibition is inactive: -0.687%.

As for `Nc1ccccc1[As](=O)(O)c1ccccc1`, the inhibition is inactive: 1.82%.

Regarding `O=C(O)COc1ccc([As](=O)(O)O)cc1[N+](=O)[O-]`, the inhibition is inactive: -3.5%.

As for `Cc1ccc(S(=O)(=O)N(CCCN)CCCc2c(C)nc(N)[nH]c2=O)cc1`, the inhibition is inactive: -1.77%.

`Nc1cccc([As](=O)(O)c2ccccc2)c1`: the inhibition is inactive: -0.79%.

Consider `NS(=O)(=O)c1cccc(NC(=O)COC(=O)C(O)(c2ccccc2)c2ccccc2)c1`, for which the inhibition is inactive: -1.4%.

Turning to `O=[As](O)(c1cccs1)c1cccs1`, the inhibition was inactive: 2.07%.

Consider `CC1CCC(C(C)C)C(OP(=O)(Nc2ccccn2)c2ccccc2)C1` (stereo not drawn), for which the inhibition was inactive: 0.0745%.

As to `Cc1ccc(C(=O)OC2CN3CCC2CC3)cc1` (stereo not drawn), the inhibition was inactive: -5.21%.

In the case of `CN(C)C1(CNC(=O)c2ccc(S(C)(=O)=O)cc2)CCCCC1`, the inhibition was inactive: 3.23%.

As for `O=C(/C=C/c1ccccc1)OC1CN2CCC1CC2` (stereo not drawn), the inhibition is inactive: -0.508%.

Turning to `CCCC1OP(=O)(Nc2ccccc2)OCC1CC` (stereo not drawn), the inhibition is inactive: 1.16%.

Turning to `COc1ccccc1CNC(=O)COC(=O)C(O)(c1ccccc1)c1ccccc1`, the inhibition was inactive: 3.76%.

With `CC(C)/C=N\N=C(\N)N[N+](=O)[O-]`, the inhibition is inactive: -0.216%.

For the compound `CN(C(=O)Cc1ccc(Cl)c(Cl)c1)[C@@H]1CCCC[C@H]1N1CCCC1`, the inhibition was inactive: -6.01%.

`CN(C(=O)Cc1ccc(Cl)c(Cl)c1)C1CCCC[C@@H]1N1CCCC1` (stereo partly drawn): the inhibition is inactive: -0.724%.

For `CCC1=CC2Cc3nc4ccc(Cl)cc4c(N)c3C(C1)C2` (stereo not drawn), the inhibition was inactive: -15.1%.

Turning to `CCOP(=O)(NC(=NC(C)c1ccccc1)NC(C)c1ccccc1)OCC` (stereo not drawn), the inhibition was inactive: -0.694%.

For `CN(CCCl)Cc1cc(Cl)c(NC2=NCCN2)c(Cl)c1`, the inhibition is inactive: -1.43%.

Regarding `CCOP(=O)(Nc1ccc(C)cn1)OCC`, the inhibition was inactive: -13.8%.

On to `O=P1(N(CCCl)CCCl)NCCC(C(F)(F)F)O1` (stereo not drawn), for which the inhibition was inactive: -3.67%.

With `CC(C)(C)C(=O)NC(Sc1ncccn1)C(Cl)(Cl)Cl` (stereo not drawn), the inhibition was inactive: -3.51%.

With `O=C(OC1CN2CCC1CC2)c1cccc([N+](=O)[O-])c1` (stereo not drawn), the inhibition was inactive: 2.14%.

Turning to `CCOC(=O)c1ccc(NC(=O)C(C)(CCl)SC)cc1` (stereo not drawn), the inhibition was inactive: -2.87%.

Turning to `COP1(=S)c2c(C)nn(CCC#N)c2N=C(c2ccc(F)cc2)N1C` (stereo not drawn), the inhibition is inactive: -6.84%.

Turning to `COC(=O)C1(C)COP(=O)(N2CCCC2)OC1` (stereo not drawn), the inhibition was inactive: -1.19%.

For `O=C(O)C(=O)c1ccc(N(CCCl)CCCl)cc1`, the inhibition is inactive: -12%.

As for `O=C(Nc1ccncc1[N+](=O)[O-])c1ccc([N+](=O)[O-])cc1[N+](=O)[O-]`, the inhibition is inactive: -6.66%.

For the compound `CCOC(=O)Nc1cccc([As](=O)(O)O)c1`, the inhibition is inactive: -1.92%.

Turning to `O=P(Nc1ccccn1)(c1cccc2ccccc12)c1cccc2ccccc12`, the inhibition was inactive: -2.39%.

With `Cc1cc(SC(NC=O)C(Cl)(Cl)Cl)ncn1` (stereo not drawn), the inhibition was inactive: -1.28%.

Turning to `O=[N+]([O-])c1ccc(Nc2ccc(Oc3ccc([N+](=O)[O-])cc3[N+](=O)[O-])cc2)c([N+](=O)[O-])c1`, the inhibition is inactive: 0.514%.

`CCOC(=O)Nc1ccc([As](=O)(O)O)c(O)c1`: the inhibition was inactive: -3.02%.

Turning to `O=C(O)C(O)c1ccc(N(CCCl)CCCl)cc1` (stereo not drawn), the inhibition was inactive: -1.54%.

On to `CC1CCNP(=O)(N(CCCl)CCCl)O1` (stereo not drawn), for which the inhibition was inactive: -3.57%.

For `COP(=O)(OC)N1CC1c1ccccc1` (stereo not drawn), the inhibition is inactive: 0.724%.

Take `CCCCOc1ccc(C(=O)NCC2(N3CCCCC3)CCCCC2)cc1OC`: the inhibition was inactive: -5.36%.

Regarding `CC(C)c1ccc(OP(=O)(Nc2ccccn2)Oc2ccccc2F)cc1` (stereo not drawn), the inhibition was inactive: -0.702%.

Turning to `COC(=O)C1(C)COP(=O)(N2CCCCCC2)OC1` (stereo not drawn), the inhibition was inactive: 1.44%.

Take `O=C(OC1CN2CCC1CC2)c1cccc2[nH]cnc12` (stereo not drawn): the inhibition is inactive: 0.215%.

For `CC(C)NC(=O)NP(=O)(Oc1ccccc1)Oc1ccccc1`, the inhibition is inactive: 1.44%.

For the compound `O=[As](O)(c1ccc(O)cc1)c1ccccc1O`, the inhibition is inactive: -1.91%.

Regarding `C[As](=O)(O)c1cccc(C(=O)O)c1`, the inhibition was inactive: -0.418%.

As for `COc1cc(C(=O)NCC2(N3CCOCC3)CCCCC2)ccc1OCC(C)C`, the inhibition is inactive: 0.114%.

`O=[N+]([O-])c1ccc(-c2cc([N+](=O)[O-])c(O)c([N+](=O)[O-])c2)cc1`: the inhibition is inactive: -2.8%.

Turning to `[N-]=[N+]=NC1CCCCC1NC(=O)c1cc([N+](=O)[O-])cc([N+](=O)[O-])c1` (stereo not drawn), the inhibition is inactive: -5.36%.

As for `Cc1ccc(OP(=O)(Nc2ccc([N+](=O)[O-])cn2)Oc2ccc(C)cc2)cc1`, the inhibition was inactive: -0.391%.

For `Cc1ccc2nc3c(c(C)c2c1)CC(C(Cl)Cl)S3` (stereo not drawn), the inhibition was inactive: -6.36%.

As for `O=[N+]([O-])c1cc(Oc2ccc([N+](=O)[O-])cc2C(F)(F)F)cc([N+](=O)[O-])c1`, the inhibition is inactive: 3.76%.

Regarding `COc1ccc(N/C(=N/P(=O)(N2CCOCC2)N2CCOCC2)N2CCOCC2)cc1`, the inhibition is inactive: -0.979%.

In the case of `Cc1c2c(nc3ccccc13)SC(C(Cl)Cl)C2` (stereo not drawn), the inhibition is inactive: -1.96%.

For the compound `Cc1cc(=O)[nH]c(N[N+](=O)[O-])n1`, the inhibition is inactive: 0.0565%.

As to `COc1ccc(CN2/C(=N\P(=O)(Oc3ccccc3)Oc3ccccc3)Cc3ccccc3C2C2CC2)cc1` (stereo not drawn), the inhibition is inactive: 13.7%.

In the case of `O=P1(N(CCCl)CCCl)OCCCN1CCCl` (stereo not drawn), the inhibition is inactive: 3.15%.

For the compound `COc1ccc2nc(NP(=O)(c3ccccc3)c3ccccc3)sc2c1`, the inhibition is inactive: -0.153%.

Regarding `COc1cc(I)ccc1[As](=O)(O)O`, the inhibition was inactive: -0.198%.

`O=C(NC(Sc1ccncn1)C(Cl)(Cl)Cl)c1ccccc1` (stereo not drawn): the inhibition was inactive: 13.7%.

Take `CC(C)CC(=O)NC(Sc1ccc(Cl)cc1)C(Cl)(Cl)Cl` (stereo not drawn): the inhibition is inactive: 2.18%.

For `Nc1cc(N)c2nonc2c1[N+](=O)[O-]`, the inhibition was inactive: 12.5%.

With `CN(C(=O)Cc1ccc(Cl)c(Cl)c1)[C@H]1CCCC[C@H]1N1CCCC1`, the inhibition was inactive: 1.12%.

On to `Cc1ccc(N/C(=N/P(=O)(N2CCOCC2)N2CCOCC2)N2CCOCC2)cc1`, for which the inhibition was inactive: -1.97%.

Take `NC(=O)c1cc([N+](=O)[O-])cc([N+](=O)[O-])c1N`: the inhibition is inactive: -0.458%.

Take `Clc1ccc(Cl)c(NC2=NCC(CBr)S2)c1` (stereo not drawn): the inhibition is inactive: -2.88%.

For `COc1ccccc1OP(=O)(Nc1ccc(C)cn1)Oc1ccccc1OC`, the inhibition is inactive: -5.67%.

For the compound `Cc1ccc(OP(=O)(Nc2nccs2)Oc2ccc(C)cc2)cc1`, the inhibition is inactive: -1.44%.

For `Nc1cccc2ccc([As](=O)(O)O)cc12`, the inhibition is inactive: 64.1%.

Regarding `CN(C(=O)Cc1ccccc1)C1CC[C@@]2(CCCO2)C[C@@H]1N1CCCC1` (stereo partly drawn), the inhibition was inactive: -4.39%.

For the compound `CN(C)P(=O)(N(C)C)n1c(Nc2ccccc2)nnc1-c1ccccc1`, the inhibition was inactive: 1.07%.

For `O=P(Nc1nc2ccc(Cl)cc2s1)(c1ccccc1)c1ccccc1`, the inhibition is inactive: 1.43%.

Take `O=C(O)c1ccccc1[As](=O)(O)O`: the inhibition was inactive: -4.08%.

Regarding `CC(=O)Nc1ccc([As](=O)(O)O)cc1`, the inhibition is inactive: -2.2%.

Consider `CCCC1OP(N)(=O)OCC1CC` (stereo not drawn), for which the inhibition was inactive: -2.31%.

Regarding `CCn1c(=O)n(C2CCN(CC3CCCCCCC3)C[C@H]2CO)c2ccccc21` (stereo partly drawn), the inhibition was inactive: 1.67%.

Turning to `Cc1ccc(NP(=O)(Oc2ccccc2F)Oc2ccccc2F)nc1`, the inhibition is inactive: -13%.

Consider `CN(C(=O)Cc1ccc(Cl)c(Cl)c1)[C@H]1CCCC[C@@H]1N1CCCC1`, for which the inhibition was inactive: -1.26%.

Regarding `O=[N+]([O-])c1ncn(CCn2ncnc2[N+](=O)[O-])n1`, the inhibition is inactive: 4.2%.

Turning to `CC(C)(C)C(=O)NC(Sc1ccncn1)C(Cl)(Cl)Cl` (stereo not drawn), the inhibition is inactive: -4.11%.

For `O=C(O)CNc1ccc([As](=O)(O)O)cc1`, the inhibition is inactive: 0.333%.

For the compound `O=[N+]([O-])c1cccc(NC2=NCC(CBr)S2)c1` (stereo not drawn), the inhibition was inactive: 0.612%.

Regarding `COC(=O)C1(C)COP(=O)(Nc2ccccc2)OC1` (stereo not drawn), the inhibition is inactive: 1.77%.

As for `O=P1(N(CCCl)CCCl)OCCCS1` (stereo not drawn), the inhibition is inactive: 6.08%.

In the case of `O=C(Nc1cc([As](=O)(O)O)ccc1O)c1ccccc1`, the inhibition is inactive: -0.278%.
